Our source for the 生物活性 (DiFi细胞增殖抑制实验, CCK-8, OD450) (% of standard (Erbitux150819 = 100%)) values is patent CN115947847A.

For the experiment, the target named is 表皮生长因子受体(epidermal growth factor receptor，EGFR) (human (human colorectal cancer cell line DiFi)) (UniProt P00533). Description: cell-based or functional assay.

In turn, “重组抗EGFR单克隆抗体的酸性组分(HPLC-CEX保留时间小于10min的组分) (antibody)” had a 生物活性 (DiFi细胞增殖抑制实验, CCK-8, OD450) (% of standard (Erbitux150819 = 100%)) of 30.
